Values quoted from earlier work in publication PMC13626057, “Sensitizing tumor response to topoisomerase I antibody-drug conjugate by selective CDK7 inhibition” (Science Advances, 2026).

System: HER2-positive metastatic breast cancer
Settings: patients previously treated with multiple lines of HER2-targeted therapies; cited from earlier work

Trastuzumab deruxtecan [T-DXd]
median progression-free survival (PFS): 16.4 months | objective response rate (ORR): 60.9%
